{"source": "ChEMBL document CHEMBL4725320", "about": "(Bioorg Med Chem Lett, 2020)", "molecular_target": "T1, Nuclear receptor subfamily 1 group D member 1 (Homo sapiens, UniProt P20393)", "T1 sequence (P20393 whole entry)": "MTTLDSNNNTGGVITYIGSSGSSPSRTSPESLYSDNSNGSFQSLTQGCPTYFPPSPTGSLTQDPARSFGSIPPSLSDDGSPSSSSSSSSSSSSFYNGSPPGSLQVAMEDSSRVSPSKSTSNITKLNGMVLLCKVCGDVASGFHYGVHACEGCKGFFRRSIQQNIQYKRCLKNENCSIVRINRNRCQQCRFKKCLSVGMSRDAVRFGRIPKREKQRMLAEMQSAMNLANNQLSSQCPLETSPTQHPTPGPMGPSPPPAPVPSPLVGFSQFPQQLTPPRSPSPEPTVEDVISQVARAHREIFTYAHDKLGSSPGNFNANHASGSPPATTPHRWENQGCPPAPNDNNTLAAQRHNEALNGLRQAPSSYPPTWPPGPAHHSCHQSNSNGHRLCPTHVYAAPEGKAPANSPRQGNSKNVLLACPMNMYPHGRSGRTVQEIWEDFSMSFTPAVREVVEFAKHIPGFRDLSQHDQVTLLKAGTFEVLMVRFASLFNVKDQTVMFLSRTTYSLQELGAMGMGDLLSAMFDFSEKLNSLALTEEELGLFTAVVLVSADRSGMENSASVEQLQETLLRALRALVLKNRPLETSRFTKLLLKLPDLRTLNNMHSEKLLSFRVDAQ", "experiment": "Agonist activity at Rev-Erb alpha (unknown origin) by FRET assay", "assay_type": "single protein", "data": [{"smiles": "CCOC(=O)N1CCC(CN(Cc2ccc(Cl)cc2)Cc2ccc([N+](=O)[O-])s2)C1", "note": "(stereo unspecified) [SR9009]", "values": [{"measurement": "EC50", "value": 620, "unit": "nM"}]}]}
